From patent publication US20260355274A1 (Onkure, Inc., priority 2022, published 2026)

The chains behind the UniProt entries cited, without tags or fusion partners. Where a name states a change or a piece, a line headed by the entry shows the natural chain unless it says otherwise.
UniProt O15379: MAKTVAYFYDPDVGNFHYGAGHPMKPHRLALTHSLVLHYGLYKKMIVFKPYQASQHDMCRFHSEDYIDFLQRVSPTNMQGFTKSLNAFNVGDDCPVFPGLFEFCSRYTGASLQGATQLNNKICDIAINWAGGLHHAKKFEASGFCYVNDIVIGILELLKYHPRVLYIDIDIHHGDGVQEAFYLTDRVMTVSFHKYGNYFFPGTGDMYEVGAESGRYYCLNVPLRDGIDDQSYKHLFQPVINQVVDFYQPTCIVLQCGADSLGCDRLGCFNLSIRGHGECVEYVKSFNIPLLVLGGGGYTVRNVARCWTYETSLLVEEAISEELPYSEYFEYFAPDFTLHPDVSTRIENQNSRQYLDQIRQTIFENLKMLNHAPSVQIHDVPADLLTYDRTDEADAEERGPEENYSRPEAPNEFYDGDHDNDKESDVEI

Target: HDAC 3 (Homo sapiens, UniProt O15379)
Assay: enzymatic inhibition of HDAC 3
Format: biochemical
Settings: HDAC 3, Class I
Source text: The mammalian HDACs can be divided into four classes depending on their sequence homology, sub-cellular distribution and catalytic activity. Class I, Il and IV HDACs have a Zn^2+ cofactor in the catalytic site. Class III HDACs contain sirtuins 1-7 and are NAD^+-dependent. Class I (HDACs 1, 2, 3 and 8) share the same homology as Rpd3 and are preliminarily distributed in the nucleus of normal cells. Class II HDACs can be subdivided into class IIa HDACs and class Ilb HDACs. Class IIa enzymes (HDAC 4, 5, 7 and 9) shuttle between the nucleus and cytoplasm and are located in specific tissues such as the brain, heart, and muscle. Class IIb (HDACs 6 and 10) are chiefly located in the cytoplasm.

SMILES: C/C=C1\NC(=O)[C@@H](CS)NC(=O)[C@@H](C(C)C)NC(=O)C[C@@H](/C=C/CCS)OC(=O)[C@H](C(C)C)NC1=O [Red-FK228, reference compound]
- IC50: 1.3 nM
